Target: His6-EcPepQ (His6-tagged Escherichia coli prolidase) (Escherichia coli, UniProt P21165)
Assay: proline release
Details: free enzyme; pH 8.0, 60 °C

Sequences of proteins named here, by UniProt entry; tags and fusion partners are left off. A change or cut given only in a name is not applied to a line headed by its entry.
UniProt P21165: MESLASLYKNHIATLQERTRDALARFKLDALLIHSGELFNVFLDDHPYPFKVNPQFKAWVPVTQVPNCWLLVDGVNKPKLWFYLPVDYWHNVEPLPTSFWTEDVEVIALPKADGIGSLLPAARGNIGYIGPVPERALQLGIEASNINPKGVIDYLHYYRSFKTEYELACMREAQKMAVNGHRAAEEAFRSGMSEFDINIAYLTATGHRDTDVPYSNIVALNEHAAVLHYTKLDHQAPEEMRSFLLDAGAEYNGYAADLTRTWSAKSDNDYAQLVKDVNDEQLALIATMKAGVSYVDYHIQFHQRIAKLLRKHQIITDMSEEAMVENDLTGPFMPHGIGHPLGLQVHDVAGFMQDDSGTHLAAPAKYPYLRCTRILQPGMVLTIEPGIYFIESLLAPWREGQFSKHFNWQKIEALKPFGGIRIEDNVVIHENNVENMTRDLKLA

Question: Which proline release does the source give for `C[C@H](N)C(=O)N1CCC[C@H]1C(=O)O` here?
Answer: monitoring the release of proline from Ala-Pro by free and immobilized enzymes
